Experimental data published in patent US10994047B2, “Peptide dendrimers comprising fibrinogen-binding peptides” (HAEMOSTATIX LIMITED, priority 2014, dated 2021).

How the values were obtained:
fibrinogen = molecular target: T1, fibrinogen (Homo sapiens, UniProt P02675+P02679); test: Mixtures of peptide conjugate and peptide dendrimer copolymerising with fibrinogen, clotting time; format: biochemical; conditions: conjugate 2 mg/ml mixed with Peptide Dendrimer No. 3 or 4 at 0.025-0.5 mg/ml; FIG. 6
T1 sequence (P02679 27-433 limits assumed): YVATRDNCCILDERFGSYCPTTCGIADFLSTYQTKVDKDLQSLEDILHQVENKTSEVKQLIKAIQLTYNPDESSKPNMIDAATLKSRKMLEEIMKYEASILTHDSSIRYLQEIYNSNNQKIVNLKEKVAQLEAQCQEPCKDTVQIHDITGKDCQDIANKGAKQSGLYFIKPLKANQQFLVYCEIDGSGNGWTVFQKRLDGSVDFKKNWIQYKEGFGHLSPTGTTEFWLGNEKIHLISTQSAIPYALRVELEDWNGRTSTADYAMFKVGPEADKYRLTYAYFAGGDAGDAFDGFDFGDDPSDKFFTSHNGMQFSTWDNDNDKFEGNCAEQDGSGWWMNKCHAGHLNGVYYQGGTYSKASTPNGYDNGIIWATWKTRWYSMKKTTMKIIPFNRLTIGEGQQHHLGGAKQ
T1 sequence (P02675 31-491): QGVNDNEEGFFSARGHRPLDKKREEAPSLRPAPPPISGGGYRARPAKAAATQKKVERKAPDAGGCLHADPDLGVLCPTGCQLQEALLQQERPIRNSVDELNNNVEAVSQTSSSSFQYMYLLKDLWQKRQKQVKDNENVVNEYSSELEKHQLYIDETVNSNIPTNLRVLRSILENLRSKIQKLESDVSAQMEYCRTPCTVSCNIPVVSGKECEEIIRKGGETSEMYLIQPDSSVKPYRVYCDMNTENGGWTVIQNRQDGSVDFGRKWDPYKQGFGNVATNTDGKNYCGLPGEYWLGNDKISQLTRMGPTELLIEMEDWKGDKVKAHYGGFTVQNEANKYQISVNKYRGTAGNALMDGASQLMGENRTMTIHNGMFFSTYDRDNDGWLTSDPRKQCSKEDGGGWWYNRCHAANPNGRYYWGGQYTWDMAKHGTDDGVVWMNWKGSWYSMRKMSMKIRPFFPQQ
T1 sequence (P02671 20-629 partner limits assumed): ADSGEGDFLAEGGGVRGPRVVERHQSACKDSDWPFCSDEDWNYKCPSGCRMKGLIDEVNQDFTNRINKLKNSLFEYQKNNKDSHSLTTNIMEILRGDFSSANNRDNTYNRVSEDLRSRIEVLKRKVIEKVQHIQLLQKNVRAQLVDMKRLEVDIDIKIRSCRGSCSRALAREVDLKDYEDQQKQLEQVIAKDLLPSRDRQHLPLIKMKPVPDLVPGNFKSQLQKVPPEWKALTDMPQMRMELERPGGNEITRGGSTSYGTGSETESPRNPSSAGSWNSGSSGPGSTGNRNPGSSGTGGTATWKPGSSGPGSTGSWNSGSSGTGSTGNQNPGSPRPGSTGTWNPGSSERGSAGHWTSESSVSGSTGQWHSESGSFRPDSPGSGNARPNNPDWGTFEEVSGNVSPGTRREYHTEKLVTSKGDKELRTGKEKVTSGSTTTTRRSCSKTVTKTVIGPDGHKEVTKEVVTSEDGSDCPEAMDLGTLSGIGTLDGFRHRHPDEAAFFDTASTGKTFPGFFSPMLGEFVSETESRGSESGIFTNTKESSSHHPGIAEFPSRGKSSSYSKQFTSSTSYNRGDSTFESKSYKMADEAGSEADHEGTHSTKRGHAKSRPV
Method: (§1) The ability of Peptide Dendrimer No. 12 to polymerise fibrinogen was assessed. 30 μl of dendrimer in solution, at concentration ranging from 0.005-2 mg/ml, was added to 100 μl purified human fibrinogen at 3 mg/ml (the level of fibrinogen found in the blood). Polymerisation of fibrinogen was analysed using a Sigma Amelung KC4 Delta coagulation analyser.
Peptide Conjugate No. 1 or 2 (2 mg/ml) was mixed with Peptide Dendrimer No. 3 or 4, and fibrinogen, and the ability of the mixtures to copolymerise with fibrinogen was assessed using the same method described in Example 2, for a concentration of each dendrimer ranging from 0.025-0.5 mg/ml.

[1] = molecular target: T2, purified human fibrinogen (Homo sapiens, UniProt P02675+P02679); test: Copolymerisation of peptide dendrimer with purified fibrinogen, clotting time on KC4 Delta coagulation analyser; format: biochemical
T2 sequence (P02679 27-433 limits assumed): T1 sequence (P02679 27-433 limits assumed)
T2 sequence (P02675 31-491): T1 sequence (P02675 31-491)
T2 sequence (P02671 20-629 partner limits assumed): T1 sequence (P02671 20-629 partner limits assumed)
Method: as §1
The ability of Peptide Dendrimer Nos. 4, 5, 10, 11, and 12 to copolymerise with fibrinogen was assessed using the same method described in Example 2. The concentration of each dendrimer was varied from 0.005-0.5 mg/ml.
The ability of the dendrimers to copolymerise with fibrinogen was assessed using the same method described in Example 2, for a concentration of each dendrimer ranging from 0.005-0.5 mg/ml.

Substance	activity of mixtures in copolymerising with fibrinogen (clotting times) (fibrinogen)	ability to copolymerise with fibrinogen ([1]; at higher fibrinogen concentrations (data not shown))	ability to copolymerise with fibrinogen (clotting time) ([1]; dendrimer 0.005-0.5 mg/ml, fibrinogen 3 mg/ml, FIG. 2 and 3)
Peptide Conjugate No. 1: two GPRP fibrinogen-binding peptides attached by linkers to a lysine residue, second by its amino-terminal end with carboxy-terminal amide	not active		
Peptide Dendrimer No. 3: three-branch dendrimer on a single lysine, peptides of sequence GPRPG; one attached by its amino-terminal end, carboxy-terminal amide		able to copolymerise with fibrinogen	reduced the ability of the dendrimer to copolymerise with fibrinogen
Peptide Conjugate No. 2: GHRPY peptide and reverse sequence YPRHG (amide) attached by linkers to a lysine residue	synergistic and increased activity		
